From patent US20220249564A1, “PDL1 POSITIVE NK CELL CANCER TREATMENT” (City of Hope, priority 2019, published 2022)

System: PD-L1-KO K562 myeloid leukemia cells
Assay: NSG mouse model with human primary NK cells and PD-L1-KO K562 cells
Type: in vivo, NSG mice
Conditions: every other day for two weeks; FIG. 5D
Text: FIGS. 5A-5D present data showing the effects of the anti-PD-L1 mAb AZ and/or NK-activating cytokines on anti-tumor efficacy in vivo. […] After 6 days, mice were sacrificed and NK cells were isolated and assessed for PD-L1 expression by flow cytometry. Representative figures and summary data are shown (n=5). […] PBS instead of IgG1 was used as placebo because AZ lacks antibody-dependent cellular cytotoxicity activity. After 6 days (three treatments), mice were sacrificed and human NK cells were examined for their expression of granzyme B, CD107α, and IFN-γ, while the number of PD-L1-knockout K562 myeloid leukemia cells (as shown in FIG. 5C) was enumerated by flow cytometry. Representative figures and summary data (n=5) are shown. […] Two paired groups were compared by paired t-test. One-way ANOVA with repeated measures or linear mixed model was used to compare three (3) or more donor-matched groups. P values were adjusted by the Holm-Sidak method. Kaplan-Meier method was used to estimate survival functions and log-rank test was applied to group comparisons.
8-week old NSG mice were intravenously (i.v.) injected with PD-L1 knockout K562 myeloid leukemia cells at a concentration of 2 million cells per mouse. […]

IL-2: NK cell-activating cytokine was tested, and the survival was “neither the in vivo administration of IL-2 alone had much effect on survival”.
